In patent US20200024278A1, “COMPOSITION COMPRISING ANTIBIOTIC COMPOUND AND AN HETEROCYCLIC COMPOUND AND THEIR USE IN PREVENTING OR TREATING BACTERIAL INFECTIONS” (MUTABILIS, priority 2016, published 2020):

Columns and labels:
Assay in all cases: MIC, broth microdilution (CLSI), substance alone or ATB combined with compound at 4 or 8 μg/mL
ECL P99 = assay type: cell-based, E. cloacae
ECO UFR39 = assay type: cell-based, E. coli
PAE UFR48 = assay type: cell-based, P. aeruginosa
PAE UFR90 = assay type: cell-based, P. aeruginosa
SPN 49619 = assay type: cell-based, S. pneumoniae
SAU 29213 = assay type: cell-based, S. aureus
KPN UFR42 = assay type: cell-based, K. pneumoniae
KPN BAA-1898 = assay type: cell-based, K. pneumoniae
PAE 105250 = assay type: cell-based, P. aeruginosa
KPN 6299 = assay type: cell-based, K. pneumoniae
ECO 190317 = assay type: cell-based, E. coli

For `O=C(N[C@H](CO)[C@H](O)c1ccc([N+](=O)[O-])cc1)C(Cl)Cl` [CM], the “MIC ATB combined with Example 7 @8 μgml” value (ECL P99; with Example 7 at 8 μg/ml) was over 32 µg/mL, the “MIC ATB combined with Example 9 @4 μg/ml” value (ECL P99; with Example 9 @4 μg/ml) was under 0.031 µg/mL and the “MIC ATB combined with Example 9 @4 μg/ml” value (ECL P99; with Example 9 at 4 μg/ml) was under 0.031 µg/mL. The “MIC ATB combined with Example 11 @8 μg/ml” value (ECL P99; with Example 11 at 8 μg/ml) was under 0.031 µg/mL, the “MIC ATB combined with Example 12 @8 μg/ml” value (ECL P99; with Example 12 at 8 μg/ml) was under 0.031 µg/mL and the “MIC ATB combined with Example 13 @8 μg/ml” value (ECL P99; with Example 13 at 8 μg/ml) was over 32 µg/mL. The “MIC ATB combined with Example 14 @8 μg/ml” value (ECL P99; with Example 14 at 8 μg/ml) was under 0.031 µg/mL, the “MIC ATB combined with Example 15 @4 μgml” value (ECL P99; with Example 15 at 4 μg/ml) was under 0.031 µg/mL and the “MIC ATB combined with Example 16 @4 μg/ml” value (ECL P99; with Example 16 at 4 μg/ml) was under 0.031 µg/mL. For the same molecule, the “MIC ATB combined with Example 9 @4 μg/ml” value (ECO UFR39; with Example 9 @4 μg/ml) was under 0.031 µg/mL, the “MIC ATB combined with Example 9 @4 μg/ml” value (ECO UFR39; with Example 9 at 4 μg/ml) was under 0.031 µg/mL and the “MIC ATB combined with Example 11 @8 μg/ml” value (ECO UFR39; with Example 11 at 8 μg/ml) was under 0.031 µg/mL. For the same molecule, the “MIC ATB combined with Example 12 @8 μg/ml” value (ECO UFR39; with Example 12 at 8 μg/ml) was under 0.031 µg/mL, the “MIC ATB combined with Example 14 @8 μg/ml” value (ECO UFR39; with Example 14 at 8 μg/ml) was under 0.031 µg/mL and the “MIC ATB combined with Example 15 @4 μgml” value (ECO UFR39; with Example 15 at 4 μg/ml) was under 0.031 µg/mL. The “MIC ATB combined with Example 16 @4 μg/ml” value (ECO UFR39; with Example 16 at 4 μg/ml) was under 0.031 µg/mL, the “MIC ATB combined with Example 7 @8 μgml” value (PAE UFR48; with Example 7 at 8 μg/ml) was over 32 µg/mL and the “MIC ATB combined with Example 9 @4 μg/ml” value (PAE UFR48; with Example 9 @4 μg/ml) was over 32 µg/mL. The “MIC ATB combined with Example 9 @4 μg/ml” value (PAE UFR48; with Example 9 at 4 μg/ml) was over 32 µg/mL, the “MIC ATB combined with Example 11 @8 μg/ml” value (PAE UFR48; with Example 11 at 8 μg/ml) was over 32 µg/mL and the “MIC ATB combined with Example 13 @8 μg/ml” value (PAE UFR48; with Example 13 at 8 μg/ml) was over 32 µg/mL. The “MIC ATB combined with Example 15 @4 μgml” value (PAE UFR48; with Example 15 at 4 μg/ml) was over 32 µg/mL, the “MIC ATB combined with Example 7 @8 μgml” value (PAE UFR90; with Example 7 at 8 μg/ml) was over 32 µg/mL and the “MIC ATB combined with Example 9 @4 μg/ml” value (PAE UFR90; with Example 9 @4 μg/ml) was over 32 µg/mL. For the same molecule, the “MIC ATB combined with Example 9 @4 μg/ml” value (PAE UFR90; with Example 9 at 4 μg/ml) was over 32 µg/mL, the “MIC ATB combined with Example 11 @8 μg/ml” value (PAE UFR90; with Example 11 at 8 μg/ml) was over 32 µg/mL and the “MIC ATB combined with Example 13 @8 μg/ml” value (PAE UFR90; with Example 13 at 8 μg/ml) was over 32 µg/mL. The “MIC ATB combined with Example 15 @4 μgml” value (PAE UFR90; with Example 15 at 4 μg/ml) was over 32 µg/mL, the “MIC ATB combined with Example 9 @4 μg/ml” value (SPN 49619; with Example 9 @4 μg/ml) was under 0.031 µg/mL and the “MIC ATB combined with Example 9 @4 μg/ml” value (SPN 49619; with Example 9 at 4 μg/ml) was under 0.031 µg/mL. For the same molecule, the “MIC ATB combined with Example 12 @8 μg/ml” value (SPN 49619; with Example 12 at 8 μg/ml) was under 0.031 µg/mL, the “MIC ATB combined with Example 14 @8 μg/ml” value (SPN 49619; with Example 14 at 8 μg/ml) was under 0.031 µg/mL and the “MIC ATB combined with Example 9 @4 μg/ml” value (SAU 29213; with Example 9 @4 μg/ml) was under 0.031 µg/mL. For the same molecule, the “MIC ATB combined with Example 9 @4 μg/ml” value (SAU 29213; with Example 9 at 4 μg/ml) was under 0.031 µg/mL, the “MIC ATB combined with Example 12 @8 μg/ml” value (SAU 29213; with Example 12 at 8 μg/ml) was under 0.031 µg/mL and the “MIC ATB combined with Example 14 @8 μg/ml” value (SAU 29213; with Example 14 at 8 μg/ml) was under 0.031 µg/mL. The “MIC ATB combined with Example 16 @4 μg/ml” value (SAU 29213; with Example 16 at 4 μg/ml) was under 0.031 µg/mL, the “MIC ATB alone” value (KPN UFR42; antibiotic alone) was over 32 µg/mL and the “MIC ATB combined with Example 1 @8 μg/ml” value (KPN UFR42; with Example 1 @8 μg/ml) was over 32 µg/mL. For the same molecule, the “MIC ATB combined with Example 1 @8 μg/ml” value (KPN UFR42; with Example 1 at 8 μg/ml) was over 32 µg/mL, the “MIC ATB combined with Example 7 @8 μgml” value (KPN UFR42; with Example 7 at 8 μg/ml) was over 32 µg/mL and the “MIC ATB combined with Example 9 @4 μg/ml” value (KPN UFR42; with Example 9 @4 μg/ml) was over 32 µg/mL. For the same molecule, the “MIC ATB combined with Example 9 @4 μg/ml” value (KPN UFR42; with Example 9 at 4 μg/ml) was over 32 µg/mL, the “MIC ATB combined with Example 11 @8 μg/ml” value (KPN UFR42; with Example 11 at 8 μg/ml) was over 32 µg/mL and the “MIC ATB combined with Example 12 @8 μg/ml” value (KPN UFR42; with Example 12 at 8 μg/ml) was under 0.031 µg/mL. The “MIC ATB combined with Example 13 @8 μg/ml” value (KPN UFR42; with Example 13 at 8 μg/ml) was over 32 µg/mL, the “MIC ATB combined with Example 14 @8 μg/ml” value (KPN UFR42; with Example 14 at 8 μg/ml) was under 0.031 µg/mL and the “MIC ATB combined with Example 15 @4 μgml” value (KPN UFR42; with Example 15 at 4 μg/ml) was over 32 µg/mL. For the same molecule, the “MIC ATB combined with Example 16 @4 μg/ml” value (KPN UFR42; with Example 16 at 4 μg/ml) was under 0.031 µg/mL, the “MIC ATB alone” value (KPN BAA-1898; antibiotic alone) was over 32 µg/mL and the “MIC ATB combined with Example 1 @8 μg/ml” value (KPN BAA-1898; with Example 1 @8 μg/ml) was over 32 µg/mL. For the same molecule, the “MIC ATB combined with Example 1 @8 μg/ml” value (KPN BAA-1898; with Example 1 at 8 μg/ml) was over 32 µg/mL, the “MIC ATB combined with Example 7 @8 μgml” value (KPN BAA-1898; with Example 7 at 8 μg/ml) was over 32 µg/mL and the “MIC ATB combined with Example 9 @4 μg/ml” value (KPN BAA-1898; with Example 9 @4 μg/ml) was under 0.031 µg/mL. The “MIC ATB combined with Example 9 @4 μg/ml” value (KPN BAA-1898; with Example 9 at 4 μg/ml) was under 0.031 µg/mL, the “MIC ATB combined with Example 11 @8 μg/ml” value (KPN BAA-1898; with Example 11 at 8 μg/ml) was under 0.031 µg/mL and the “MIC ATB combined with Example 12 @8 μg/ml” value (KPN BAA-1898; with Example 12 at 8 μg/ml) was under 0.031 µg/mL. The “MIC ATB combined with Example 13 @8 μg/ml” value (KPN BAA-1898; with Example 13 at 8 μg/ml) was over 32 µg/mL, the “MIC ATB combined with Example 14 @8 μg/ml” value (KPN BAA-1898; with Example 14 at 8 μg/ml) was under 0.031 µg/mL and the “MIC ATB combined with Example 15 @4 μgml” value (KPN BAA-1898; with Example 15 at 4 μg/ml) was under 0.031 µg/mL. For the same molecule, the “MIC ATB combined with Example 16 @4 μg/ml” value (KPN BAA-1898; with Example 16 at 4 μg/ml) was under 0.031 µg/mL, the “MIC ATB alone” value (PAE 105250; antibiotic alone) was over 32 µg/mL and the “MIC ATB combined with Example 1 @8 μg/ml” value (PAE 105250; with Example 1 @8 μg/ml) was over 32 µg/mL. The “MIC ATB combined with Example 1 @8 μg/ml” value (PAE 105250; with Example 1 at 8 μg/ml) was over 32 µg/mL, the “MIC ATB combined with Example 7 @8 μgml” value (PAE 105250; with Example 7 at 8 μg/ml) was over 32 µg/mL and the “MIC ATB combined with Example 9 @4 μg/ml” value (PAE 105250; with Example 9 @4 μg/ml) was over 32 µg/mL. For the same molecule, the “MIC ATB combined with Example 9 @4 μg/ml” value (PAE 105250; with Example 9 at 4 μg/ml) was over 32 µg/mL, the “MIC ATB combined with Example 11 @8 μg/ml” value (PAE 105250; with Example 11 at 8 μg/ml) was over 32 µg/mL and the “MIC ATB combined with Example 13 @8 μg/ml” value (PAE 105250; with Example 13 at 8 μg/ml) was over 32 µg/mL. The “MIC ATB combined with Example 15 @4 μgml” value (PAE 105250; with Example 15 at 4 μg/ml) was over 32 µg/mL, the “MIC ATB alone” value (KPN 6299; antibiotic alone) was over 32 µg/mL and the “MIC ATB combined with Example 1 @8 μg/ml” value (KPN 6299; with Example 1 @8 μg/ml) was over 32 µg/mL. For the same molecule, the “MIC ATB combined with Example 1 @8 μg/ml” value (KPN 6299; with Example 1 at 8 μg/ml) was over 32 µg/mL, the “MIC ATB combined with Example 7 @8 μgml” value (KPN 6299; with Example 7 at 8 μg/ml) was over 32 µg/mL and the “MIC ATB combined with Example 9 @4 μg/ml” value (KPN 6299; with Example 9 @4 μg/ml) was over 32 µg/mL. The “MIC ATB combined with Example 9 @4 μg/ml” value (KPN 6299; with Example 9 at 4 μg/ml) was over 32 µg/mL, the “MIC ATB combined with Example 11 @8 μg/ml” value (KPN 6299; with Example 11 at 8 μg/ml) was under 0.031 µg/mL and the “MIC ATB combined with Example 12 @8 μg/ml” value (KPN 6299; with Example 12 at 8 μg/ml) was under 0.031 µg/mL. The “MIC ATB combined with Example 13 @8 μg/ml” value (KPN 6299; with Example 13 at 8 μg/ml) was over 32 µg/mL, the “MIC ATB combined with Example 14 @8 μg/ml” value (KPN 6299; with Example 14 at 8 μg/ml) was under 0.031 µg/mL and the “MIC ATB combined with Example 15 @4 μgml” value (KPN 6299; with Example 15 at 4 μg/ml) was under 0.031 µg/mL. For the same molecule, the “MIC ATB combined with Example 16 @4 μg/ml” value (KPN 6299; with Example 16 at 4 μg/ml) was under 0.031 µg/mL, the “MIC ATB combined with Example 9 @4 μg/ml” value (ECO 190317; with Example 9 @4 μg/ml) was under 0.031 µg/mL and the “MIC ATB combined with Example 9 @4 μg/ml” value (ECO 190317; with Example 9 at 4 μg/ml) was under 0.031 µg/mL. The “MIC ATB combined with Example 11 @8 μg/ml” value (ECO 190317; with Example 11 at 8 μg/ml) was under 0.031 µg/mL, the “MIC ATB combined with Example 12 @8 μg/ml” value (ECO 190317; with Example 12 at 8 μg/ml) was under 0.031 µg/mL and the “MIC ATB combined with Example 14 @8 μg/ml” value (ECO 190317; with Example 14 at 8 μg/ml) was under 0.031 µg/mL. For the same molecule, the “MIC ATB combined with Example 15 @4 μgml” value (ECO 190317; with Example 15 at 4 μg/ml) was under 0.031 µg/mL and the “MIC ATB combined with Example 16 @4 μg/ml” value (ECO 190317; with Example 16 at 4 μg/ml) was under 0.031 µg/mL.
